Measured values reported in PMC8615095.

Biological target: membrane-bound IgE-Fc (IgE-Fc-B-cell receptor: 3xFLAG-Cε2-Cε3-Cε4-EMPD-transmembrane-intracellular domain)
Assay: flow cytometry on cells; IgG (omalizumab 10-0.01 nM, quilizumab 100-0.1 nM) on Ramos-Fcε cells induced 48 h with 1 µg/mL doxycycline, uninduced cells and empty-vector cells, 30 min on ice; detected with anti-human-IgG-PE

EC50: 1 nM
Substance: omalizumab (Xolair), full-length IgG (antibody)
